# Only a part is listed here, and it is no random draw. Calls of active or inactive are those of the source.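 How the source made its calls: active means inhibition above about 70% (limit read from the data); inactive means the rest.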
# Amino acid sequences for entries named in this document (tags omitted).
# UniProt P63103, whole entry: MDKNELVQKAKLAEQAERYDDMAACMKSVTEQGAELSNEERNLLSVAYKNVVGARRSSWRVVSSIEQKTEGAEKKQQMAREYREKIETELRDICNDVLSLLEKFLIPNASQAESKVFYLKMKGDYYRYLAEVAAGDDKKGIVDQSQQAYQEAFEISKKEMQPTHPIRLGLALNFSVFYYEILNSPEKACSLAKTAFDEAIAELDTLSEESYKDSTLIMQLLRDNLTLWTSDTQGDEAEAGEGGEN
# Target: 14-3-3 protein zeta/delta (Bos taurus) (UniProt P63103)
# Test: inhibitors of 14-3-3 zeta/Bad binding, primary screen, biochemical, TR-FRET, bovine 14-3-3 zeta (AID 781);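 further: 0% = full 14-3-3 plus peptide FRET controls and 100% = background without 14-3-3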
# Conditions: TR-FRET 14-3-3zeta/Dy647-pBad peptide displacement, 1 h; at 21.7 µM; stronger effect = higher value
row,SMILES,inhibition
1,COc1ccc(C(=O)NCC2(N3CCCCC3)CCCCC2)c(OC)c1OC,inactive: 30.8%
2,O=C(NCC1(N2CCOCC2)CCCCC1)c1cc2ccccc2o1,inactive: 4.92%
3,CCOC(=O)N1CCC(Nc2ccc(OC)cc2)CC1,inactive: -14.2%
4,O=C(OC1CN2CCC1CC2)C1c2ccccc2Oc2ccccc21 (centres undefined),inactive: 20.3%
5,N#CC1(Nc2ccccc2)CCN(Cc2ccccc2)CC1,inactive: -1.4%
6,CCOc1ccc(C)cc1CN(CCCl)CCCl,inactive: 6.15%
7,COc1ccc(NC2CCN(CCc3ccccc3)CC2)c(OC)c1,inactive: 29.3%
8,Cc1ccc(OCC(C)C)c(CN(CCCl)CCCl)c1,inactive: 4.1%
9,O=C(NCC1(N2CCCCC2)CCCCC1)c1cccc([N+](=O)[O-])c1,inactive: -8.24%
10,N#CC1(Nc2ccccc2)CCN(CCc2ccccc2)CC1,inactive: 9.78%
11,COc1ccc(NC2CCN(C(=O)OC(C)(C)C)CC2)cc1,inactive: -8.12%
12,CN1CCN(CCOC(=O)C(O)(c2ccccc2)c2ccccc2)CC1,inactive: -18.5%
13,O=C(NCC1(N2CCOCC2)CCCCC1)c1cc(=O)[nH]c2ccccc12,inactive: -6.46%
14,CN(C)c1cccc(C(=O)NCC2(N3CCCCC3)CCCCC2)c1,inactive: -7.91%
15,COc1ccc(CN(CCCl)CCCl)cc1Cl,inactive: 2.13%
16,CC(C)c1ccc(NC2CCN(C(=O)OC(C)(C)C)CC2)cc1,inactive: -6.8%
17,COc1ccc(C(=O)NCC2(N3CCOCC3)CCCCC2)cc1OC,inactive: -8.42%
18,N/C(=N\O)c1c(N)no[n+]1[O-],inactive: 12.5%
19,O=C(OC1CN2CCC1CC2)C1c2ccccc2C=Cc2ccccc21 (centres undefined),inactive: -8.53%
20,N#Cc1ccc(C(=O)NCC2(N3CCCCC3)CCCCC2)cc1,inactive: -5.53%
21,c1ccc(CN2CCC(Nc3ccccc3)CC2)cc1,inactive: -11.4%
22,Fc1ccccc1NC1CCN(Cc2ccccc2)CC1,inactive: 62.4%
23,CCN1CCC(Nc2cccc(F)c2)CC1,inactive: 47.7%
24,CN(C)c1ccc(C(=O)NCC2(N3CCCCC3)CCCCC2)cc1,inactive: -13.4%
25,CCOc1ncccc1C(=O)NCC1(N2CCOCC2)CCCCC1,inactive: 6.19%
26,CC(C)(C)OC(=O)N1CCC(Nc2ccccc2)CC1,inactive: -13%
27,CCC(CO)(C(=O)OC1CN2CCC1CC2)c1ccccc1 (centres undefined),inactive: -6.91%
28,COc1cc(OC)cc(C(=O)NCC2(N3CCOCC3)CCCCC2)c1,inactive: 4.26%
29,CCCOc1ccc(C)cc1CN(CCCl)CCCl,inactive: 13.2%
